{"source": "ChEMBL document CHEMBL3244374", "about": "“Studies on 1-substituted 4-(1,2-diphenylethyl)piperazine derivatives and their analgesic activities. 2. Structure-activity relationships of 1-cycloalkyl-4-(1,2-diphenylethyl)piperazines” (1978)", "key": {"Mus musculus [1]": {"tested_on": "Mus musculus", "experiment": "Analgesic activity in sc dosed mouse by D'Amour-Smith method"}, "Mus musculus [2]": {"tested_on": "Mus musculus", "experiment": "Toxicity in mouse at >160 mg/kg, sc", "settings": "in vivo"}}}
{"smiles": "Cl.NC(Cc1cccc(O)c1)c1ccccc1", "note": "(centres undefined)", "values": [{"measurement": "ED50", "setting": "Mus musculus [1]", "value": "> 320", "unit": "mg/kg"}]}
{"smiles": "COc1cccc(CC(c2ccccc2)N(CCO)CCO)c1.Cl", "note": "(centres undefined)", "values": [{"measurement": "ED50", "setting": "Mus musculus [1]", "value": "> 320", "unit": "mg/kg"}]}
{"smiles": "COc1ccccc1C(Cc1ccccc1)N(CCO)CCO.Cl", "note": "(centres undefined)", "values": [{"measurement": "Activity", "setting": "Mus musculus [2]", "value": "Toxic"}]}
{"smiles": "COc1cccc(CC(N)c2ccccc2)c1.Cl", "note": "(centres undefined)", "values": [{"measurement": "ED50", "setting": "Mus musculus [1]", "value": "> 320", "unit": "mg/kg"}]}
